# Assay: Ratio of minimum drug concentration to ID50 of the compound ([…] strain)
# Assay type: ADME
# Details: read-out: Therapeutic index
smiles,measurement,value
NC(=O)c1ncn([C@@H]2O[C@H](CO)[C@@H](O)[C@H]2O)n1 [RIBAVIRIN],selectivity ratio,1.1

# From ChEMBL document CHEMBL1124192, “Cyclopentenylcytosine. A carbocyclic nucleoside with antitumor and antiviral properties” (J Med Chem, 1988)
